Experimental data: patent publication US12036197B2, “Composition for improving bioavailability of drugs” (priority 2019, dated 2024)

Assay: PK test for small-intestinal administration of Pramlintide (ELISA)
Settings: male, SD, rat, plasma, 200 μg/kg

## CC[C@H](C)[C@H](NC(=O)[C@@H]1CCCN1C(=O)CNC(=O)[C@H](Cc1ccccc1)NC(=O)[C@H](CC(N)=O)NC(=O)[C@H](CC(N)=O)NC(=O)[C@H](CO)NC(=O)[C@H](CO)NC(=O)[C@H](Cc1c[nH]cn1)NC(=O)[C@@H](NC(=O)[C@H](CC(C)C)NC(=O)[C@H](Cc1ccccc1)NC(=O)[C@H](CC(N)=O)NC(=O)[C@H](C)NC(=O)[C@H](CC(C)C)NC(=O)[C@H](CCCNC(=N)N)NC(=O)[C@H](CCC(N)=O)NC(=O)[C@@H](NC(=O)[C@H](C)NC(=O)[C@@H]1CSSC[C@H](NC(=O)[C@@H](N)CCCCN)C(=O)N[C@@H](CC(N)=O)C(=O)N[C@@H]([C@@H](C)O)C(=O)N[C@@H](C)C(=O)N[C@@H]([C@@H](C)O)C(=O)N1)[C@@H](C)O)C(C)C)C(=O)N[C@@H](CC(C)C)C(=O)N1CCC[C@H]1C(=O)N1CCC[C@H]1C(=O)N[C@H](C(=O)N[C@@H](CC(N)=O)C(=O)N[C@H](C(=O)NCC(=O)N[C@@H](CO)C(=O)N[C@@H](CC(N)=O)C(=O)N[C@H](C(=O)N[C@@H](Cc1ccc(O)cc1)C(N)=O)[C@@H](C)O)C(C)C)[C@@H](C)O [Pramlintide]
  bioavailability: 1.77%
